Some of these compounds have results that are not shown, active ones among them.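 Briefly, cells in 96-well plates were exposed to five compound concentrations for 48 h, and endpoints were estimated by linear interpolation. Abbreviation: GI50, concentration required for 50% inhibition of growth. TGI: concentration producing complete growth inhibition.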
Columns and labels:
Assay in all cases: NCI tumour cell line growth inhibition, 48 h
[1] = system: CCRF-CEM leukemia
[2] = system: OVCAR-3 ovarian
[3] = system: LOX IMVI melanoma
[4] = system: MOLT-4 leukemia
[5] = system: KM12 colon
[6] = system: NCI-H23 lung
[7] = system: UO-31 renal
[8] = system: HCC-2998 colon
[9] = system: T-47D breast
[10] = system: BT-549 breast
[11] = system: UACC-62 melanoma
[12] = system: PC-3 prostate
[13] = system: COLO 205 colon
[14] = system: 786-0 renal
[15] = system: A498 renal
[16] = system: TK-10 renal
[17] = system: HOP-62 NSCLC
[18] = system: MDA-MB-231 breast
[19] = system: MALME-3M melanoma
[20] = system: SR leukemia
[21] = system: SF-268 CNS
[22] = system: A549 NSCLC
[23] = system: SK-OV-3 ovarian
[24] = system: HT29 colon
[25] = system: SF-539 CNS
[26] = system: NCI-H322M lung
[27] = system: HCT-15 colon
[28] = system: DU-145 prostate
[29] = system: HL-60(TB) leukemia
[30] = system: EKVX NSCLC
[31] = system: ACHN renal
[32] = system: HS 578T breast
[33] = system: M14 melanoma
[34] = system: SNB-75 CNS
[35] = system: NCI/ADR-RES ovarian
[36] = system: UACC-257 melanoma
[37] = system: CAKI-1 renal
[38] = system: SNB-19 CNS
[39] = system: HOP-92 NSCLC
[40] = system: MDA-N
[41] = system: NCI-H226 lung
[42] = system: SF-295 CNS
[43] = system: SK-MEL-28 melanoma
[44] = system: SW-620 colon
[45] = system: MDA-MB-435
[46] = system: MCF7 breast
[47] = system: SK-MEL-2 melanoma
[48] = system: OVCAR-8 ovarian
[49] = system: K-562 leukemia
[50] = system: NCI-H522 lung
[51] = system: RXF 393 renal
[52] = system: OVCAR-4 ovarian
[53] = system: OVCAR-5 ovarian
[54] = system: SN12C renal
[55] = system: NCI-H460 lung
[56] = system: IGROV1 ovarian
[57] = system: SK-MEL-5 melanoma
[58] = system: U251 CNS
[59] = system: HCT-116 colon

CC(Cl)CN(C)CC(C)Cl (stereo not drawn)
GI50 [1]: 3.97 µM
TGI [1]: 40.2 µM
GI50 [2]: > 100 µM
TGI [2]: > 100 µM
GI50 [3]: 24.5 µM
TGI [3]: > 100 µM
GI50 [4]: 3.28 µM
TGI [4]: > 100 µM
GI50 [5]: > 100 µM
TGI [5]: > 100 µM
GI50 [6]: 26.9 µM
TGI [6]: > 100 µM
GI50 [7]: 16.4 µM
TGI [7]: > 100 µM
GI50 [8]: 66.4 µM
TGI [8]: > 100 µM
GI50 [9]: 14.3 µM
TGI [9]: > 100 µM
GI50 [10]: > 100 µM
TGI [10]: > 100 µM
GI50 [11]: 43.1 µM
TGI [11]: > 100 µM
GI50 [12]: > 100 µM
TGI [12]: > 100 µM
GI50 [13]: 49.6 µM
TGI [13]: > 100 µM
GI50 [14]: 25.7 µM
TGI [14]: > 100 µM
GI50 [15]: > 100 µM
TGI [15]: > 100 µM
GI50 [16]: > 100 µM
TGI [16]: > 100 µM
GI50 [17]: > 100 µM
TGI [17]: > 100 µM
GI50 [18]: > 100 µM
TGI [18]: > 100 µM
GI50 [19]: 27.4 µM
TGI [19]: > 100 µM
GI50 [20]: 2.3 µM
TGI [20]: > 100 µM
GI50 [21]: 37.6 µM
TGI [21]: > 100 µM
GI50 [22]: 14.4 µM
TGI [22]: > 100 µM
GI50 [23]: > 100 µM
TGI [23]: > 100 µM
GI50 [24]: 81.5 µM
TGI [24]: > 100 µM
GI50 [25]: 32.8 µM
TGI [25]: > 100 µM
GI50 [26]: > 100 µM
TGI [26]: > 100 µM
GI50 [27]: 38.5 µM
TGI [27]: > 100 µM
GI50 [28]: 33.4 µM
TGI [28]: > 100 µM
GI50 [29]: 8.35 µM
TGI [29]: > 100 µM
GI50 [30]: 86.7 µM
TGI [30]: > 100 µM
GI50 [31]: 5.83 µM
TGI [31]: > 100 µM
GI50 [32]: > 100 µM
TGI [32]: > 100 µM
GI50 [33]: 37.4 µM
TGI [33]: > 100 µM
GI50 [34]: 39.9 µM
TGI [34]: > 100 µM
GI50 [35]: 69.7 µM
TGI [35]: > 100 µM
GI50 [36]: > 100 µM
TGI [36]: > 100 µM
GI50 [37]: 8.38 µM
TGI [37]: > 100 µM
GI50 [38]: > 100 µM
TGI [38]: > 100 µM
GI50 [39]: 20.1 µM
TGI [39]: > 100 µM
GI50 [40]: > 100 µM
TGI [40]: > 100 µM
GI50 [41]: > 100 µM
TGI [41]: > 100 µM
GI50 [42]: 58.9 µM
TGI [42]: > 100 µM
GI50 [43]: > 100 µM
TGI [43]: > 100 µM
GI50 [44]: > 100 µM
TGI [44]: > 100 µM
GI50 [45]: > 100 µM
TGI [45]: > 100 µM
GI50 [46]: 27.3 µM
TGI [46]: > 100 µM
GI50 [47]: > 100 µM
TGI [47]: > 100 µM
GI50 [48]: > 100 µM
TGI [48]: > 100 µM
GI50 [49]: > 100 µM
TGI [49]: > 100 µM
GI50 [50]: 13.9 µM
TGI [50]: 39.9 µM
GI50 [51]: 38.4 µM
TGI [51]: > 100 µM
GI50 [52]: > 100 µM
TGI [52]: > 100 µM
GI50 [53]: > 100 µM
TGI [53]: > 100 µM
GI50 [54]: 14.8 µM
TGI [54]: > 100 µM
GI50 [55]: 2.67 µM
TGI [55]: 14.8 µM
GI50 [56]: 48.4 µM
TGI [56]: > 100 µM
GI50 [57]: > 100 µM
TGI [57]: > 100 µM
GI50 [58]: 37.7 µM
TGI [58]: > 100 µM
GI50 [59]: 42.2 µM
TGI [59]: > 100 µM
